Our source for the CC50 values is US7018989B2, “Chemical compounds” (University College Cardiff Consultants, LTD, priority 1995, dated 2006).

What is called CC50 is the concentration giving 50% cytotoxicity.

In this data set the test system is CEM cells. Description: Toxicity to CEM cells. The settings on record: Table 6; mean of two or more repeat experiments. Format: cell-based, human. On the procedure: Cells were infected with HIV-1 as previously described [Balzarini et al. AIDS (1991), 5, 21–28]. Briefly, 5×10^5 cells per milliliter were infected with HIV-1 or HIV-2 at 100 CCID50 (50% cell culture infective dose) per milliliter of cell suspension. Then 100 μL of the infected cell suspension was transferred to microtiter plate wells and mixed with 100 μL of the appropriate dilutions of the test compounds. After 4 days giant cell formation was recorded microscopically in the HIV-infected cell cultures [CEM], and after 5 days the number of viable cells was determined by trypan blue staining of the HIV-infected cell cultures [MT4].
The data columns are, in order: • HIV1 MT4: EC50 in μM for inhibition of HIV-1 in MT4 cells. • HIV2 MT4: EC50 in μM for inhibition of HIV-2 in MT4 cells. • CC50 MT4: CC50 in μM for toxicity to MT-4 cells. • HIV1 CEM: EC50 in μM for inhibition of HIV-1 in CEM cells. • HIV2 CEM: EC50 in μM for inhibition of HIV-2 in CEM cells. • HIV2 CEM-TK-: EC50 in μM for inhibition of HIV-2 in CEM/TK^− cells. • CC50 CEM: CC50 in μM for toxicity to CEM cells. • EC50 MSV: EC50 in μM for inhibition of MSV • MCC MSV: Minimum cytotoxic concentration in MSV assay

`Cc1cn(C2C=CC(COP(=O)(NC(C)C(=O)OCc3ccccc3)Oc3ccccc3)O2)c(=O)[nH]c1=O` (stereo not shown) [Compound 730, 2′,3′-dideoxy-2′,3′-didehydrothymidine-5′-(phenyl N-benzyloxyalaninyl) phosphoramidate] yielded a CC50 of 25 µM.
